Measurements published in paper PMC5823688 (Molecular pharmaceutics, 2017).

How the values were obtained:
[1] = Serum stability of peptide macromonomers and polymers; type: in vitro ADME; details: 0 to 12 h; 400 μM in human serum, 37°C; acetonitrile extraction; MALDI-TOF MS
[2] = 0.25 mg/mL polymer, 100 mM phosphate buffer with 150 mM NaCl; for hydrodynamic diameter (DLS), unimers: pH 5.8; for hydrodynamic diameter (DLS): pH 7.4, number-average of three independently prepared formulations

| Substance | cleavage at the FKFL linker in human serum (2980 Da peak) [1] | hydrodynamic diameter (DLS), unimers [2] [nm] | hydrodynamic diameter (DLS) [2] [nm] |
| --- | --- | --- | --- |
| poly[(DEAEMA)-co-(BMA)]-b-[(PEGMA300)-c-(MaCathScrBIM)] [PolCathScrBIM] | absent at all time points | 6 | 26 |
| poly[(DEAEMA)-co-(BMA)]-b-[(PEGMA300)-c-(MaCath-BIM)] [PolCathBIM] | absent at all time points | 6 | 25 |
